# Legend:
# Mus musculus = species: Mus musculus; assay: Ke value for naloxone as antagonist (compound) was measured by using Mouse vas deferens (MVD) assay.
# Cavia porcellus = species: Cavia porcellus; assay: Ke value for naloxon as antagonist (compound) was measured by using Guinea pig ileum assay.
structure (smiles),measurement,setting,value
CC(C)C[C@H](NC(=O)[C@H](Cc1ccccc1)NC(=O)CNC(=O)CNC(=O)[C@@H](N)Cc1ccc(O)cc1)C(=O)O,Ke,Mus musculus,21.4 nM
C[C@@H](NC(=O)[C@@H](N)Cc1ccc(O)cc1)C(=O)NCC(=O)N(C)[C@@H](Cc1ccccc1)C(=O)NCCO [DAMGO],Ke,Cavia porcellus,0.8 nM
